The source of these data is US7435837B2, “Dihydrobenzofuranyl alkanamine derivatives and methods for using same” (Wyeth, priority 2003, dated 2008).

The chains behind the UniProt entries cited, without tags or fusion partners. Residues count along the entry.
UniProt P28335, 33-458: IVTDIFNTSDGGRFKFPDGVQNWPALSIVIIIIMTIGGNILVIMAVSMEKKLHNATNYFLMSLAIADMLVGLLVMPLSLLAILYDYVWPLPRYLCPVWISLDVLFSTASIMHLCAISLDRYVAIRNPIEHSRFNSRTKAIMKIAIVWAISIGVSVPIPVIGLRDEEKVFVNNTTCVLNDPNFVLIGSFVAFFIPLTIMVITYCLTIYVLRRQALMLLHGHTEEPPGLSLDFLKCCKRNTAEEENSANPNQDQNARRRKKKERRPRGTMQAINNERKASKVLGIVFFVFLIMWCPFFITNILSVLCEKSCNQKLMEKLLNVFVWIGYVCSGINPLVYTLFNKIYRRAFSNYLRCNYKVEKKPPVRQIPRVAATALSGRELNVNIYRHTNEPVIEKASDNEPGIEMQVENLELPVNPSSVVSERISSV

For assay [1], the target named is T1, human 5-hydroxytryptamine-2C (h5-HT2C) receptor (Homo sapiens, UniProt P28335).
T1 construct: expressed in transfected cells; host or cells: CHO (Chinese Hamster Ovary) cells; membranes
Description: [125I]DOI binding to membranes of CHO cells expressing the human 5-HT2C receptor. To be noted: reference compounds; 95% confidence interval in parentheses; [125I]DOI radioligand.

Another assay deals with human 5-HT2C receptor (Homo sapiens, UniProt P28335). To be noted: reference compounds; calcium mobilization.
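For EC50 in this document: Fluo-3-AM fluorescence read on FLIPR every 1 s, agonist added after 10 baseline reads, response taken as peak minus lowest raw fluorescence count.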

As for `Clc1cccc(N2CCNCC2)c1` [mCPP, meta-chlorophenylpiperazine, reference compound], in assay [1], the Ki amounted to 6.5 nM. Further, the EC50 on human 5-HT2C receptor turned out to be 5.4 nM.
